Test results taken from US20210386828A1, “METHODS FOR ENHANCING CANCER IMMUNOTHERAPY” (The Regents of the University of California, priority 2018, published 2021).

Assays:
[1] = tested on: histone acetyltransferase (HAT); assay: HAT activity in lysates of treated cells
[2] = tested on: Ifngr2, Tap1 and Psmb8 promoters; assay: ChIP analysis of promoters
p300/CBP = assay: p300 immunoblot and imaging; assay type: cell-based, mouse; settings: for nuclear foci / nucleolar localization of p300: high resolution imaging

O=C1[O][Pt]2([NH][C@@H]3CCCC[C@H]3[NH]2)[O]C1=O [Oxali, oxaliplatin]
stimulation of HAT activity at 2 μM versus 4 μM [1]: greater stimulation of HAT activity than at 4 μM
p65/NF-κB recruitment to the Ifngr2 promoter [2]: enhanced
p300 recruitment to Ifngr2 and Tap1 promoter [2]: increased
nuclear amount of p300 and acetylated p300/CBP (p300/CBP; Myc-CaP cells): increased the amount of total EP300 and acetylated p300/CBP in nuclei
nuclear foci / nucleolar localization of p300 (p300/CBP): induced the formation of nuclear foci containing p300

Cc1[nH]c2ccccc2c1CCNCc1ccc(/C=C/C(=O)NO)cc1 [Panabinostat]
nuclear foci / nucleolar localization of p300 (p300/CBP): only led to an increased amount of nuclear p300 but not nucleolar infiltration
